# Binding of CDR-mutated scFvs to a peptide of the spike HR2 region

The measurements come from Li et al. 2023 (doi:10.1038/s41467-023-39022-2) through the FLAb antibody collection.

Target peptide (SARS-CoV-2 spike, HR2 region): PDVDLGDISGINAS

Each scFv is VH, the linker GGGGSGGGGSGGGGS, VL, as in the parent Ab-14, and differs from it in the CDRs of the heavy chain only.
VH: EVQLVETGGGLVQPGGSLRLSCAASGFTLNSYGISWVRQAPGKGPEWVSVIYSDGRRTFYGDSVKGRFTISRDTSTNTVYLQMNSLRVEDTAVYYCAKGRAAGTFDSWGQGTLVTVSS
VL: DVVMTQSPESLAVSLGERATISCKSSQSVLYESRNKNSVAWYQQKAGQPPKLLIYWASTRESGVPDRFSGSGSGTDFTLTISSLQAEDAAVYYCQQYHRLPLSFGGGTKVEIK

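Phage display of a naive human antibody library on the peptide gave the parent. The variants were designed computationally from a first round of random CDR variants and then made and measured. Group labels follow the data file (En: ensemble of fine-tuned language models; HC: hill climbing; Gen: genetic algorithm; Gibbs: Gibbs sampling; a sequence that several methods proposed may carry one label only). Affinity was read by AlphaSeq, a pooled yeast mating assay with surface-displayed partners. After mating in shaken culture at 30 °C for 16 h, diploids were selected and their barcode pairs sequenced. Read counts were normalised to the haploid input and turned into Kd by a linear fit to BCL2-family pairs of known affinity, for each replicate. Mating was done six times.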

Each variant is given by its three heavy chain CDRs, as the data file delimits them; those of the parent are GFTLNSYGIS, VIYSDGRRTFYGDSVK, GRAAGTFDS.
This list holds designs with more than six substitutions.
The Kd shown is the geometric mean over detected replicates; a lower Kd is a better binder.
"nd" means that the variant was in the library but no mating with the target was seen in any replicate; the authors take this as a sign of poor binding, and no number exists.
Values of this round are not directly comparable with the first-round values of the same sequences.

For GFDVEDYGIS | VIYADGRRQQYAQKFK | GTIGGTFVD [En_Gibbs], the assay gave nd (0 of 6 replicates).
For GFDLNEYGIS | VIYADGMRTSYADDVK | GNVAGTFDI [En_Gen], the assay gave 510 pM (6 of 6 replicates).
For GFDLNEYGIS | VIYADGRRTFYADSVK | GNVAGTFNQ [En_HC], the assay gave 620 pM (6 of 6 replicates).
For GFDLNEYGIS | VIYADGRRTAYIDSVK | GNVAGTFDV [En_Gen], the assay gave 750 pM (6 of 6 replicates).
For GFSLDEYGIS | VIYADGRRTMYCDNFK | GELGCTFVG [En_Gibbs], the assay gave nd (0 of 6 replicates).
For GFDLNEYGIS | VIYADGRRTAYADDVK | GQVAGTFDV [En_Gen], the assay gave 120 pM (6 of 6 replicates).
For GFDLNEYGIS | VIYADGKRTAYADTVK | GNVAGTFDL [En_Gen], the assay gave 280 pM (6 of 6 replicates).
For GFDLNEYGIS | VIYADGRRTFYADSVK | GNLAGTFDV [En_HC], the assay gave 210 pM (6 of 6 replicates).
For GMDLQEFGIS | VIYADGVREAYTDDFK | GQIAGTIDL [En_Gibbs], the assay gave nd (0 of 6 replicates).
For GFDLNEYGIS | VIYADGRRTQYIDSVK | GNEAGTFDF [En_HC], the assay gave 7.2 nM (6 of 6 replicates).
For GFDLDEYGIS | VIYADGMRTAYADSVK | GNIAGTFDV [En_Gen], the assay gave 320 pM (6 of 6 replicates).
For GFDLDEYGIS | VIYADGQRTAYADDVK | GNQAGTFDV [En_Gen], the assay gave 780 pM (6 of 6 replicates).
For GFDLNEYGIS | VIYADGMRTAYADDVK | GNQAGTFDM [En_Gen], the assay gave 430 pM (6 of 6 replicates).
For GFDIEEYGIS | VIYADGQRVSYIDSFK | GQNNVIGMY [En_Gibbs], the assay gave nd (0 of 6 replicates).
For GFDLEDYGIS | VIYADGMRTAYSDSVK | GEVAGTFDL [En_Gen], the assay gave 520 pM (6 of 6 replicates).
For GFDLNEYGIS | VIYADGMRTFYTDSVK | GEFAGTFDQ [En_HC], the assay gave 230 pM (6 of 6 replicates).
For GFDLNEYGIS | VIYADGRRTAYDDSVK | GEAAGTFDQ [En_HC], the assay gave 170 pM (6 of 6 replicates).
For GFDLDEYGIS | VIYADGRRTFYADSVK | GNVAGTFDV [En_Gen], the assay gave 1.8 nM (6 of 6 replicates).
For GFDLNEYGIS | VIYADGKRTAYVDSVK | GNEAGTFDV [En_Gen], the assay gave 560 pM (6 of 6 replicates).
For GFGLDEYGIH | VIYADGMRSAYANSVK | GHQAGGIVW [En_Gibbs], the assay gave 28 nM (1 of 6 replicates).
For GDDIDEYGIS | VIYADGHRKQYSENVK | GYNAGTLDE [En_Gibbs], the assay gave 91 nM (1 of 6 replicates).
For GFDLNEYGIS | VIYADGKRTAYVDSVK | GEVAGTFDI [En_Gen], the assay gave 330 pM (6 of 6 replicates).
For GFDLNEYGIS | VIYADGRRTAYADDVK | GNEAGTFDV [En_Gen], the assay gave 550 pM (6 of 6 replicates).
For GFDLNEYGIS | VIYADGMRTAYSDSVK | GNAAGTFDV [En_Gen], the assay gave 740 pM (6 of 6 replicates).
For GFDLDEYGIS | VIYADGKRTAYADSVK | GNNAGTFDI [En_Gen], the assay gave 160 pM (6 of 6 replicates).
For GFDVNEYGIS | VIYADGVRRTYADAVK | GNLSGVVDV [En_Gibbs], the assay gave nd (0 of 6 replicates).
For GMNLDEYGIS | VIYADGFRSHYAEKVK | GQQGGFFIK [En_Gibbs], the assay gave nd (0 of 6 replicates).
For GFALDEYGIS | VIYADGSRTVYAGDVK | GMLGVAFDM [En_Gibbs], the assay gave 8.0 nM (1 of 6 replicates).
For GFDLNEYGIS | VIYADGERTFYTDSVK | GEVAGTFDS [En_HC], the assay gave 1.5 nM (6 of 6 replicates).
For GFDLNEYGIS | VIYADGRRTQYIDSVK | GETAGTFDA [En_HC], the assay gave 180 pM (6 of 6 replicates).
For GFDLDEYGIS | VIYADGMRTAYANDVK | GEVAGTFDV [En_Gen], the assay gave 330 pM (6 of 6 replicates).
For GFEIQEYGIS | VIYADGRRTAYAENVK | GTLGGTFLT [En_Gibbs], the assay gave 5.2 nM (5 of 6 replicates).
For GFDLNEYGIS | VIYADGRRTFYADSVK | GNNAGTFIF [En_HC], the assay gave 120 nM (1 of 6 replicates).
For GFTLDEYGIS | VIYADGVRVEYADSVK | GSHGLYVMV [En_Gibbs], the assay gave nd (0 of 6 replicates).
For GFDLNEYGIS | VIYADGQRTAYADSVK | GKAAGTFDM [En_HC], the assay gave 360 pM (6 of 6 replicates).
For GYDINEYGIS | VIYADGQRTSYVQSVK | GAGDITAVV [En_Gibbs], the assay gave nd (0 of 6 replicates).
For GFDLDEYGIS | VIYADGRRTFYIDSVK | GEAAGTFVM [En_HC], the assay gave 2.5 nM (3 of 6 replicates).
For GFDLDEYGVS | VIYADGFRVAYAESVK | GLQQFGFTI [En_Gibbs], the assay gave nd (0 of 6 replicates).
For GFDLNEYGIS | VIYADGSRTAYADSVK | GEAAGSFDQ [En_HC], the assay gave 4.4 nM (6 of 6 replicates).
For GKSLDEYGIS | VIYADGSREAYTESFK | GQLAAGFML [En_Gibbs], the assay gave nd (0 of 6 replicates).
For GFDLNEYGIS | VIYADGVRTAYADSVK | GNHAGTFDL [En_Gen], the assay gave 230 pM (6 of 6 replicates).
For GFTIGEYGIS | VIYADGERTMYSNAVK | GNMAGTFSF [En_Gibbs], the assay gave 56 nM (3 of 6 replicates).
For GFDLNEYGIS | VIYADGRRTAYHDSVK | GEAAGTFDQ [En_HC], the assay gave 3.3 nM (6 of 6 replicates).
For GFDLNEYGIS | VIYADGIRTFYADSVK | GNQAGTFDS [En_HC], the assay gave 410 pM (6 of 6 replicates).
For GFDLNEYGIS | VIYADGMRTQYIDSVK | GEMAGTFDS [En_HC], the assay gave 3.2 nM (6 of 6 replicates).
For GFDLQEYGVS | VIYADGVRSAYIDSVK | GRVTIGYLD [En_Gibbs], the assay gave nd (0 of 6 replicates).
For GFDLNEYGIS | VIYADGMRTVYADSVK | GNTAGTFDQ [En_Gen], the assay gave 39 pM (6 of 6 replicates).
For GFDLDEYGIS | VIYADGSRTAYADSVK | GETAGTFDV [En_Gen], the assay gave 650 pM (6 of 6 replicates).
For GFELTEYGIS | VIYADGHRSFVTDSVK | GQNAGAFNV [En_Gibbs], the assay gave 390 pM (6 of 6 replicates).
For GFDLNEYGIS | VIYADGRRTAYVDNVK | GNVAGTFDV [En_Gen], the assay gave 120 pM (6 of 6 replicates).
For GFDLNEYGIS | VIYADGRRTAYADSVK | GNVAGTFDT [En_Gen], the assay gave 180 pM (6 of 6 replicates).
For GFDIEEYGIS | VIYADGERTAYSNAVK | GNMAGTFLF [En_Gibbs], the assay gave 880 pM (6 of 6 replicates).

The 4 strongest on average among those seen in every replicate, once more:

{"CDR-H1": "GFDLNEYGIS", "CDR-H2": "VIYADGMRTVYADSVK", "CDR-H3": "GNTAGTFDQ", "group": "En_Gen", "Kd": "39 pM", "seen in": "6 of 6"}
{"CDR-H1": "GFDLNEYGIS", "CDR-H2": "VIYADGRRTAYVDNVK", "CDR-H3": "GNVAGTFDV", "group": "En_Gen", "Kd": "120 pM", "seen in": "6 of 6"}
{"CDR-H1": "GFDLNEYGIS", "CDR-H2": "VIYADGRRTAYADDVK", "CDR-H3": "GQVAGTFDV", "group": "En_Gen", "Kd": "120 pM", "seen in": "6 of 6"}
{"CDR-H1": "GFDLDEYGIS", "CDR-H2": "VIYADGKRTAYADSVK", "CDR-H3": "GNNAGTFDI", "group": "En_Gen", "Kd": "160 pM", "seen in": "6 of 6"}

The authors' rule: three or more of the six replicates give a measured affinity, fewer mean a poor binder.
Three control strains display no target. For all heavy chain designs, 1% of the pairings with them gave a signal, with a median of 120 nM and one signal in twenty below 7.0 nM, so weak values seen in few replicates may be background.